Molecular target: phosphodiesterase IX (Homo sapiens (Human), UniProt O76083)
Experiment: Inhibition activity to the phosphodiesterase IX
Assay type: biochemical
Details: concentration of the inhibitor when the inhibition rate reaches 50%

Sequences of proteins named here, by UniProt entry; tags and fusion partners are left off. A change or cut given only in a name is not applied to a line headed by its entry.
UniProt O76083: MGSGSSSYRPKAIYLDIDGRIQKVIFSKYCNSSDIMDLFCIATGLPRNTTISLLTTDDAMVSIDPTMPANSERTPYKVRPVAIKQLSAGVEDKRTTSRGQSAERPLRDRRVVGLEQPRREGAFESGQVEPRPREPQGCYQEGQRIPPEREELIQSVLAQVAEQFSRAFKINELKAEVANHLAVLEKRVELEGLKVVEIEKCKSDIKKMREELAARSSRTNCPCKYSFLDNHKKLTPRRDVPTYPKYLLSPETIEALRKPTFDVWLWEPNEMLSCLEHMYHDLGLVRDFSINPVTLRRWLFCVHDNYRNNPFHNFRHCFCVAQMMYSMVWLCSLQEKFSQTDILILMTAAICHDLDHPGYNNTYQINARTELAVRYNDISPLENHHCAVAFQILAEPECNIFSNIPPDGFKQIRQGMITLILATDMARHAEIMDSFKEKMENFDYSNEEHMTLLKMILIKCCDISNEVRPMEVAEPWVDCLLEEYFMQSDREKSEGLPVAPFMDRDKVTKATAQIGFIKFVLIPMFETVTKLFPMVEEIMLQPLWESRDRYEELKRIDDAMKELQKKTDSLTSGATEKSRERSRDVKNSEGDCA

SMILES: CC(Nc1nc2c(cnn2C2CCCC2)c(=O)[nH]1)c1ccc(Cl)cc1 (stereo not shown) [WYQ-46]
- IC50: 6 nM
